Assay results as given in patent US5707966A, “Antithrombotic agents” (Eli Lilly and Company, priority 1995, dated 1998).

assay: Index of bioavailability (% Relative Activity, plasma TT AUC oral vs i.v.); format: in vivo; details: dose-adjusted AUC of plasma TT, p.o. vs i.v. bolus

| Substance | % oral/i.v. activity (Rat) [%] |
| --- | --- |
| 1-Piq-Pro-p-NHCH2 C6 H4 C(NH)NH2.2HCl [Example 18] | 12 |
| D-hPro-Pro-p-NHCH2 C6 H4 C(NH)NH2.HCl [Example 17] | 15 |
| EtSO2 -D-Phe-Pro-p-NHCH2 --C6 H4 C(=NH)NH2.HCl [Example 23] | 12 |
